Reference: PubChem BioAssay AID1016 (Sanford-Burnham Center for Chemical Genomics, 2008)
The entries are a selection whose mix differs from that of the whole data set. Activity calls are given as the source filed them.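 The calls were made as follows: active = activation factor of 2 or more at 20 µM, a signal rise over negative controls twice the positive control's; inactive = the rest.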

Tested on: alkaline phosphatase, intestinal [Bos taurus]
Assay: bovine intestinal alkaline phosphatase activators, primary screen, biochemical, bovine IAP, CDP-star luminescence (AID 1016)
Conditions: purified bovine IAP, 30 min, at 20 µM, fold of DMSO-control signal, blank-subtracted; active compounds read high

SMILES	activation factor
O=C(OC1CN2CCC1CC2)c1cccc(Cl)c1 (centres undefined)	inactive
COc1ccc(OP(C)(=O)Nc2cccc(Br)c2)cc1 (centres undefined)	inactive: 1
COc1ccc(NP(C)(=O)Oc2ccccc2OC)cc1 (centres undefined)	inactive: 1
CN(C)CCOC(=O)C(O)(c1ccccc1)C1CCCCC1 (centres undefined)	inactive
O=[N+]([O-])c1ncn(CCn2ncnc2[N+](=O)[O-])n1	inactive
CP(=O)(OC12CC3CC(CC(C3)C1)C2)OC12CC3CC(CC(C3)C1)C2	inactive: 1
CCOC(=O)c1ccc(NP(C)(=O)Oc2ccc(Cl)cc2)cc1 (centres undefined)	inactive: 1
CCN(/C(=N/P(=O)(N1CCOCC1)N1CCOCC1)N1CCOCC1)c1ccc(OC)cc1	inactive
CP(=O)(Nc1ccc(Cl)cc1)Oc1ccc(F)cc1 (centres undefined)	inactive: 1
CC(C)(C)c1ccc(OP(C)(=O)O)cc1	inactive: 0.9
COc1ccccc1OP(C)(=O)Nc1ccccc1Br (centres undefined)	inactive: 1
CC1CCN(C(=O)Oc2c(Cl)cc(Cl)c3cccnc23)CC1	inactive
CN(C)C(=O)c1c([N+](=O)[O-])cc([N+](=O)[O-])cc1[N+](=O)[O-]	inactive: 0.9
CC(C)=N/N=C(\N)N[N+](=O)[O-]	inactive
CN(C)C(=O)OCCc1n(C)cc[n+]1C	inactive
CCN(CC)CC(O)COC(=O)C(O)(c1ccccc1)C1CCCCC1 (centres undefined)	inactive
COc1ccc(OP(C)(=O)Nc2ccc(Br)cc2)cc1 (centres undefined)	inactive: 1
CP(=O)(Oc1ccccc1)N1CCOC1=O (centres undefined)	inactive: 1.1
Cc1ccc(NP(=O)(Oc2ccccc2)Oc2ccccc2)nc1	inactive
CCc1ccc(OP(C)(=O)Nc2cccnc2)cc1 (centres undefined)	inactive: 1

SMILES	activation factor
COc1ccccc1OP(C)(=O)Nc1c(C)n(C)n(-c2ccccc2)c1=O (centres undefined)	inactive: 0.9
CC(=O)N1C2C3N(C(C)=O)C1C1N(C(C)=O)C(C(N1C(C)=O)N3C(C)=O)N2C(C)=O	inactive
O=C(NC(Sc1ccncn1)C(Cl)(Cl)Cl)c1ccccc1 (centres undefined)	inactive
O=[N+]([O-])c1cc([N+](=O)[O-])c(Nc2ccccn2)c([N+](=O)[O-])c1	inactive: 0.7
Cc1c(NP(C)(=O)Oc2ccc(C(C)C)cc2)c(=O)n(-c2ccccc2)n1C (centres undefined)	inactive: 1
CCc1ccc(OP(C)(=O)O)cc1	inactive: 1
CP(=O)(Nc1ccccn1)Oc1ccccc1 (centres undefined)	inactive: 0.9
COc1ccccc1OP(C)(=O)Nc1ccc(C)cc1C (centres undefined)	inactive: 0.9
Cc1ccc(N/C(=N/P(=O)(N2CCOCC2)N2CCOCC2)N2CCOCC2)cc1	inactive
CN(C)CCOC(=O)C(O)(c1ccccc1)C1CCCC1 (centres undefined)	inactive: 0.9
CN1CCCC(OC(=O)C(c2ccccc2)c2ccccc2)C1 (centres undefined)	inactive
COc1ccc(OP(C)(=O)Nc2ccccn2)cc1 (centres undefined)	inactive: 0.9
Cc1nc2ccc3ccccc3c2o1.O=[N+]([O-])c1cc([N+](=O)[O-])c(O)c([N+](=O)[O-])c1	inactive: 1
CP(=O)(OCCOc1ccccc1)OCCOc1ccccc1	inactive: 1
CP(=O)(Nc1ccc(Cl)cc1Cl)Oc1ccccc1 (centres undefined)	inactive: 1
Cc1cc(C)cc(OP(C)(=O)Nc2cccc(C(F)(F)F)c2)c1 (centres undefined)	inactive: 1
COc1ccc(OP(C)(=O)Nc2ccccc2Br)cc1 (centres undefined)	inactive: 0.7
Cc1cc(SC(NC(=O)c2ccc(F)cc2)C(Cl)(Cl)Cl)ncn1 (centres undefined)	inactive
COc1ccccc1OP(C)(=O)Nc1ccc(C)c(C)c1 (centres undefined)	inactive: 1
